Earlier results, collected in patent publication US20250228953A1, “INTRACELLULAR TARGETING OF OLIGONUCLEOTIDES” (Entrada Therapeutics, Inc., priority 2021, published 2025).

Details: as reported by Tien, et al.; cited from earlier work

**Q.** Which “SASA, Theoretical” value does the source give for `O=C(O)[C@@H]1CCCN1` [Pro, Proline] here?
**A.** 159.0 Å^2
